Data taken from patent publication US8673947B2, “Enhanced migraine treatments based on ghrelin mimetics” (Helsinn Therapeutics (U.S.), Inc., priority 2009, dated 2014).

Test: Pharmacokinetic two period crossover study of oral sumatriptan with or without anamorelin hydrochloride
Assay type: in vivo, human
Conditions: plasma sumatriptan; sumatriptan succinate 25 mg oral tablet, alone or with anamorelin HCl 100 mg oral; fasted healthy subjects, N = 22; sampling to 4 hours postdose
Description: The study was a two period crossover study in 22 healthy, normal men and women ages 18-45 years, conducted in open label format. Sumatriptan was administered as one oral tablet; anamorelin was administered as 4 25 mg oral capsules; and all medication was given with 200 mL of water. Subjects were fasted overnight with a seven day wash out period between periods. […] All samples were analyzed using a validated bioanalytical method (LC-MS-MS).

Question: For CNS(=O)(=O)Cc1ccc2[nH]cc(CCN(C)C)c2c1 [Sumatriptan, 1-[3-(2-dimethylaminoethyl)-1H-indol-5-yl]-N-methyl-methanesulfonamide], which “AUC last, Median” value is on record?
Answer: 45.44 ng·h/mL
